The values below come from PubChem BioAssay AID602313 (National Center for Advancing Translational Sciences (NCATS), 2012).

Only a part is listed here, and it is no random draw. The source made the active and inactive calls. The call rests on the fitted dose curve; in most records, active means well fitted inhibition curve with a large enough effect; inconclusive means small, poorly fitted or top-dose-only effect; inactive means flat fitted curve, though single readings scatter.

This assay in a line: qHTS for Inhibitors of Vif-A3F Interactions: qHTS. Further: % of control where 0% means no effect; nearly all actives have a fitted effect of over 65% in size. As to conditions: HeLa A3F-eYFP + Vif (tagged APOBEC3F with the HIV-1 protein that degrades it), YFP fluorescence increase; at 46.1 µM (top of the series). An excerpt:
The recent discovery and characterization of host restriction factors, which provide a potent defense to invading retroviruses, has provided new targets for antiviral drug development. APOBEC3G (A3G) and APOBEC3F (A3F) are potent cytidine deaminases that block HIV-1 replication; HIV-1 expresses the Vif protein, which counteracts A3G and A3F by binding to them and inducing their proteasomal degradation. The Vif-A3G and Vif-A3F interactions provide two potential targets for development of small molecules which can interfere with the ability of Vif to degrade A3G or A3F. […] To identify inhibitors that can interfere with Vif mediated degradation of A3G and A3F, we have developed Hela cell lines that stably express A3G or A3F tagged with eYFP at the C-terminal end (A3G-eYFP or A3F-eYFP, respectively) and Vif. In the absence of an inhibitor, Vif induces degradation of A3G-eYFP and A3F-eYFP, and the cells are not fluorescent. In the presence of an inhibitor, it is expected that Vif will be unable to degrade A3G-eYFP and/or A3F-eYFP, resulting in an increase in yellow fluorescence. In this assays Vif A3F was screened against the Molecular Library Small Molecule Repository (MLSMR). NIH Chemical Genomics Center [NCGC] NIH Molecular Libraries Probe Centers Network [MLPCN] MLPCN Grant: MH093245 Assay Submitter (PI): Vinay Pathak, National Cancer Institute
5 uL of 700 cells/well of A3F-YFP cells are dispensed into black, clear bottom plates. The plates are incubated overnight at 37 deg C. 23 nL of compounds are added by pintool. The plates are incubated overnight at 37 deg C and then read on the TTP Acumen (Ex 488/ Em 500-530).
`Nc1ccccc1[As](=O)(O)c1ccccc1`: the activity, negative = active was inactive: 0.282%. On to `O=C(O)COc1ccc([As](=O)(O)O)cc1[N+](=O)[O-]`, for which the activity, negative = active is inactive: -0.479%. For `CCOP1(=S)c2c(C)nn(CCC#N)c2N=C(c2ccccc2F)N1C` (stereo unspecified) the value was inactive: -12.4%. Turning to `O=P(Nc1nccs1)(c1ccccc1)c1nc2ccccc2s1` (stereo unspecified), the activity, negative = active is inactive: -22.2%. The value for `O=P(Nc1nccs1)(Oc1ccccc1)Oc1ccccc1` was inactive: 2.1%; that for `CN(C)C(=O)c1cc([N+](=O)[O-])cc2c1-c1c(cc([N+](=O)[O-])cc1[N+](=O)[O-])C2=O` was inactive: 8.18%. For `O=[N+]([O-])c1ccc2c(c1)nnn2O` the value was inactive: 0.0364%. The value for `CN(C(=O)Cc1ccc(Cl)c(Cl)c1)[C@H]1CC[C@@]2(CCCO2)C[C@@H]1N1CCCC1` was inactive: -0.398%; that for `N#CCCN(C(=O)COC(=O)C(O)(c1ccccc1)c1ccccc1)c1ccc(F)cc1` was inactive: 6.62%. With `CCOP1(=S)c2c(C)nn(CCC#N)c2N=C(c2ccc(F)cc2)N1C` (stereo unspecified), the activity, negative = active is inactive: -0.147%. For `CN(C(=O)Cc1ccccc1)[C@@H]1CC[C@]2(CCCO2)C[C@H]1N1CCCC1` the value was inactive: 8.61%; for `NC(=O)Nc1ccc([As](=O)(O)O)cc1`, inactive: 6.6%. The value for `O=C(/C=C/c1ccccc1)OC1CN2CCC1CC2` (stereo unspecified) was inactive: 0%; that for `CCCC1OP(=O)(Nc2ccccc2)OCC1CC` (stereo unspecified) was inactive: -3.76%.

With `CN(C)C1(CNC(=O)c2ccc(S(C)(=O)=O)cc2)CCCCC1`, the activity, negative = active is inactive: 1.52%. On to `Cc1nn(-c2ccccc2)c2c1P(=O)(N1CCOCC1)N(C)C(c1ccccc1)=N2` (stereo unspecified), for which the activity, negative = active is inactive: -0.425%.

In the case of `CC1CCC(C(C)C)C(OP(=O)(Nc2ccccn2)c2ccccc2)C1` (stereo unspecified), the activity, negative = active was inactive: -2.12%. As to `Cc1ccc(C(=O)OC2CN3CCC2CC3)cc1` (stereo unspecified), the activity, negative = active was inactive: -2.47%.

For the compound `O=P1(Nc2ccc(Br)cn2)COc2ccccc2OC1`, the activity, negative = active is inactive: 3.92%.

With `NS(=O)(=O)c1cccc(NC(=O)COC(=O)C(O)(c2ccccc2)c2ccccc2)c1`, the activity, negative = active is inactive: 3.3%. For `O=[As](O)(c1cccs1)c1cccs1` the value was inactive: 2.63%; for `Cc1ccc(OCC(=O)OC2CN3CCC2CC3)cc1` (stereo unspecified), inactive: -1.31%; for `Nc1cccc([As](=O)(O)c2ccccc2)c1`, inactive: 0.0331%.

For the compound `O=P1(Nc2ncccn2)COc2ccccc2OC1`, the activity, negative = active was inactive: 0.482%.

As to `O=P1(N(CCCl)CCCl)NCCC(C(F)(F)F)O1` (stereo unspecified), the activity, negative = active was inactive: -0.54%. Turning to `Clc1n[nH]nc1-c1nn[nH][15n]1`, the activity, negative = active was inactive: -12.3%. Consider `CC(C)(C)C(=O)NC(Sc1ncccn1)C(Cl)(Cl)Cl` (stereo unspecified), for which the activity, negative = active is inactive: -7.98%. For `CN(CCCl)Cc1cc(Cl)c(NC2=NCCN2)c(Cl)c1` the value was inactive: -15.9%; for `CCOP(=O)(Nc1ccc(C)cn1)OCC`, inactive: -7.41%; for `O=P1(Nc2ccccn2)COc2ccccc2OC1`, inactive: 9.01%. Turning to `CCC1=CC2Cc3nc4ccc(Cl)cc4c(N)c3C(C1)C2` (stereo unspecified), the activity, negative = active is inactive: -1.45%. On to `CCOP(=O)(NC(=NC(C)c1ccccc1)NC(C)c1ccccc1)OCC` (stereo unspecified), for which the activity, negative = active is inactive: -10.1%. `CC1(CBr)Cn2c(nc3ccccc3c2=O)S1` (stereo unspecified): the activity, negative = active is inactive: 0.413%.

As to `CC(C)/C=N\N=C(\N)N[N+](=O)[O-]`, the activity, negative = active was inactive: -2.24%. The value for `CN(C(=O)Cc1ccc(Cl)c(Cl)c1)[C@@H]1CCCC[C@H]1N1CCCC1` was inactive: -2.6%; that for `COc1ccccc1CNC(=O)COC(=O)C(O)(c1ccccc1)c1ccccc1` was inactive: -6.56%. For `c1nnnn1CCn1cnnn1`, the activity, negative = active was inactive: 0.226%. In the case of `CC(C)C(=O)NC(Sc1ccccc1)C(Cl)(Cl)Cl` (stereo unspecified), the activity, negative = active was inactive: 3.84%. As to `O=P(Nc1nccs1)(c1ccccc1)c1ccccc1`, the activity, negative = active was inactive: 1.58%. Consider `O=P(Nc1nc2ccccc2s1)(c1ccccc1)c1ccccc1`, for which the activity, negative = active was inactive: 0.516%.

`C[C@H]1OP(=O)(Oc2ccccc2)[C@H](O)[C@H](O)[C@H]1N=[N+]=[N-]` (stereo partly specified): the activity, negative = active was inactive: 5.62%. For `COc1ccc(N)c([N+](=O)[O-])c1[N+](=O)[O-]` the value was inactive: -0.29%; for `O=P(Nc1ccccn1)(c1ccc(Br)cc1)c1ccc(Br)cc1`, inactive: -5.29%; for `CN(C)C1(CNC(=O)c2ccc(Cl)c(S(N)(=O)=O)c2)CCCCC1`, inactive: 5.04%.

For `Nc1ccc([As](=O)(O)c2ccc([N+](=O)[O-])cc2)cc1`, the activity, negative = active is inactive: -7.81%. Turning to `C(Cc1nn[nH]n1)Cc1nn[nH]n1`, the activity, negative = active was inactive: 0.773%. `O=C(OC1CN2CCC1CC2)c1cccc(Cl)c1` (stereo unspecified): the activity, negative = active was inactive: 0.612%.

In the case of `O=[N+]([O-])c1ccc(O)c(/C=N/Nc2ccc([N+](=O)[O-])cc2[N+](=O)[O-])c1`, the activity, negative = active was inactive: -3.38%.

Regarding `O=[N+]([O-])c1ncn(CCn2cnc([N+](=O)[O-])n2)n1`, the activity, negative = active is inactive: 1.75%. For `CC(=O)NC(SC(=S)N(C)C)C(Cl)(Cl)Cl` (stereo unspecified) the value was inactive: -0.172%; for `O=[As](O)(c1ccccc1)c1ccc(O)cc1`, inactive: 8.76%.
